# Values quoted from earlier work as cited in publication PMC7395068, “The evolution of strategies to minimise the risk of human drug-induced liver injury (DILI) in drug discovery and development” (Archives of Toxicology, 2020).
# Read-outs that look alike come from different tables or passages of the source.
# Legend:
# human hepatocytes = details: cited from earlier work
# [1] = test system: HepG2 cells, primary human hepatocytes; details: cited from earlier work
# [2] = test system: THLE or HepG2 cells, isolated mitochondria, BSEP; details: cited from earlier work
# [3] = in vivo; cited from earlier work
# HepG2 cells [4] = details: cited from earlier work
# HepG2 cells [5] = details: cited from earlier work; remark: listed apart in the source
# PHH [6] = details: cited from earlier work
# [7] = test system: HepG2 C3A spheroid, BSEP, Glu/Gal in HepG2 cells, bioactivation; details: cited from earlier work
# hLiMTs = details: cited from earlier work
# [8] = test system: isolated mouse liver mitochondria; details: cited from earlier work
# [9] = test system: THLE-Null and THLE-3A4 cells; details: In vitro Assay; ref Gustafsson 2014; cited from earlier work
# PHH [10] = details: cited from earlier work; remark: listed apart in the source
# HepG2 = details: cited from earlier work
# [11] = test system: primary human hepatocytes, NIH3T3 fibroblasts, BSEP, CYP3A4; details: cited from earlier work
# [12] = read-out: Human plasma Cmax; total plasma Cmax.tot, median of 9 literature references; cited from earlier work
# [13] = cited from earlier work
# [14] = 2D PHH, ATP, IC50 < 100 × Cmax.tot, ref Proctor et al. 2017
# [15] = hLiMTs, ATP, IC50 < 100 × Cmax.tot, ref Proctor et al. 2017
smiles,measurement,setting,value
N=C(N)NC(=O)c1nc(Cl)c(N)nc1N [amiloride],Structural based (HCI),human hepatocytes,-VE
same,Cluster 1-6 +VE Assay,[1],-VE
COc1cc2c(c(OC)c1OC)-c1ccc(OC)c(=O)cc1[C@@H](NC(C)=O)CC2 [colchicine],Ro2 Hybrid HRM Score,[2],-VE
same,"DILI +VE (5-8), DILI -VE (-4)",[3],-VE
same,DILI severity category,[3],Ambiguous DILI-concern
same,Structural based (HCI),HepG2 cells [4],+VE
same,Structural based (HCI),HepG2 cells [5],+VE
O=C1CN(/N=C/c2ccc(-c3ccc([N+](=O)[O-])cc3)o2)C(O)=N1 [dantrolene],"PHH/100xCmax, Proctor (2017)",PHH [6]; [14],-VE
same,Bayesian Machine Learning,[7],+VE
same,"Bayesian Machine Learning DILI prediction, Williams (2019)",[7],+VE
same,"hLiMTs/100xCmax, Proctor (2017)",hLiMTs; [15],-VE
O=C(O)Cc1ccccc1Nc1c(Cl)cccc1Cl [diclofenac],Structural based (HCI),human hepatocytes,+VE
same,Bayesian Machine Learning,[7],+VE
same,"Bayesian Machine Learning DILI prediction, Williams (2019)",[7],+VE
same,in vitro data EC20<=2uM,[8],+VE
same,Cluster 1-6 +VE Assay,[1],+VE
"CCOC(=O)c1ncn2c1CN(C)C(=O)c1cc(F)ccc1-2 [flumazenil, reference compound]","PHH/100xCmax, Proctor (2017)",PHH [6]; [14],-VE
same,Bayesian Machine Learning,[7],-VE
same,"Bayesian Machine Learning DILI prediction, Williams (2019)",[7],-VE
same,"hLiMTs/100xCmax, Proctor (2017)",hLiMTs; [15],-VE
same,THLE-Null/3A4,[9],-VE
"CC(=O)N1CCN(c2ccc(OCC3COC(Cn4ccnc4)(c4ccc(Cl)cc4Cl)O3)cc2)CC1 (centres unmarked) [ketoconazole, reference compound]",Cytotoxicity PHH 48 hrs,PHH [10],+VE
same,Cytotoxicity HepG2 48 hrs,HepG2,+VE
CS(=O)(=O)CCNCc1ccc(-c2ccc3ncnc(Nc4ccc(OCc5cccc(F)c5)c(Cl)c4)c3c2)o1 [lapatinib],Combined Assay,[11],+VE
same,Cmax,[12],11.6 µM
CO[C@@]12[C@H](COC(N)=O)C3=C(C(=O)C(C)=C(N)C3=O)N1C[C@@H]1N[C@@H]12 [mitomycin],in vitro data EC20<=2uM,[8],-VE
same,hLiMTs ATP <100uM,hLiMTs,+VE (key: +VE: IC50 threshold of 100 µM)
CS(=O)(=O)Nc1ccc([N+](=O)[O-])cc1Oc1ccccc1 [nimesulide],Structural based (HCI),human hepatocytes,+VE
same,in vitro data EC20<=2uM,[8],+VE
Cc1cc2c(s1)Nc1ccccc1N=C2N1CCN(C)CC1 [olanzapine],"DILI +VE (5-8), DILI -VE (-4)",[3],+VE
same,DILI severity category,[3],vLess-DILI-Concern
same,Bayesian Machine Learning,[7],+VE
same,Cellular toxicity (3T3 cells),[11],+VE
same,Combined Assay,[11],-VE
same,GSH adduct HML,[11],+VE
same,Hepatocyte cellular toxicity,[11],-VE
same,MitoTox 3T3,[11],-VE
same,TDI CYP3A4,[11],-VE
same,hBSEP inhibition,[11],-VE
CCN(CC)CC#CCOC(=O)C(O)(c1ccccc1)C1CCCCC1 (centres unmarked) [oxybutynin],"Rule of Two hybrid HRM Score ≥3, Aleo (2019)",[2],-VE
same,"PHH/100xCmax, Proctor (2017)",PHH [6],-VE
same,Bayesian Machine Learning,[7],-VE
same,in vitro data EC20<=2uM,[8],+VE
same,"hLiMTs/100xCmax, Proctor (2017)",hLiMTs,-VE
CCCCC1C(=O)N(c2ccccc2)N(c2ccccc2)C1=O [phenylbutazone],Structural based (HCI),human hepatocytes,+VE
same,in vitro data EC20<=2uM,[8],+VE
C[C@]12C=CC(=O)C=C1CC[C@@H]1[C@@H]2[C@@H](O)C[C@@]2(C)[C@H]1CC[C@]2(O)C(=O)CO [prednisolone],Cluster 1-6 +VE Assay,[1],-VE
CCC1(c2ccccc2)C(=O)NCNC1=O [primidone],Partition Hybrid HRM Score,[2],-VE
same,Ro2 Hybrid HRM Score,[2],-VE
same,Structural based (HCI),human hepatocytes,-VE
same,In vivo DILI,[13],-VE
CCCc1cc(=O)[nH]c(=S)[nH]1 [propylthiouracil],in vitro data EC20<=2uM,[8],+VE
CCN(CC)CCCC(C)Nc1c2ccc(Cl)cc2nc2ccc(OC)cc12 (centres unmarked) [quinacrine],Cluster 1-6 +VE Assay,[1],+VE
Nc1nc2ccc(OC(F)(F)F)cc2s1 [riluzole],"DILI +VE (5-8), DILI -VE (-4)",[3],+VE
same,In vivo DILI,[13],+VE
Cc1nc2n(c(=O)c1CCN1CCC(c3noc4cc(F)ccc34)CC1)CCCC2 [risperidone],"DILI +VE (5-8), DILI -VE (-4)",[3],+VE
same,DILI severity category,[3],vLess-DILI-Concern
CC1=C(CC(=O)O)c2cc(F)ccc2/C1=C\c1ccc([S+](C)[O-])cc1 (centres unmarked) [sulindac],Partition Hybrid HRM Score,[2],+VE
same,Ro2 Hybrid HRM Score,[2],+VE
same,THLE-Null/3A4,[9],-VE
CCN1CCCC1CNC(=O)c1cc(S(N)(=O)=O)ccc1OC (centres unmarked) [sulpiride],Cluster 1-6 +VE Assay,[1],-VE
same,THLE-Null/3A4,[9],-VE
Cn1c(=O)c2[nH]cnc2n(C)c1=O [theophylline],Structural based (HCI),HepG2 cells [4],+VE
same,In vivo DILI,[13],-VE
CN1c2ccccc2C(NCCCCCCC(=O)O)c2ccc(Cl)cc2S1(=O)=O (centres unmarked) [tianeptine],In vivo DILI,[13],+VE
